{
  "source": "the supplement of paper PMC11997997",
  "system": "Mycobacterium tuberculosis CDC1551 (intracellular, in murine BMDM)",
  "assay": "area under intracellular growth-inhibition dose-response curve (AUC (% inhibition x dose, relative)); higher = more potent",
  "conditions": "duration: 6 days; dose range: 0.13-80 uM, 8 points",
  "procedure": "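Primary murine bone marrow-derived macrophages in 384-well plates were infected with luciferase-expressing M. tuberculosis CDC1551 (MOI 1, 1 h), then treated with an 8-point 2.5-fold dose response (80 to 0.13 uM) for 6 days. Intracellular growth was read by luciferase and normalised to rifampicin and to the lowest-dose wells. The AUC of the % inhibition dose-response was computed in Prism.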",
  "note": "Several values for one entry are separate records, joined by “and”; a condition that tells them apart may be missing. Identical values can stand only once.",
  "data": [
    {"smiles": "CCOc1ccc(NC(=S)Nc2ccc(OCC)cc2)cc1", "values": [
      {"measurement": "area under intracellular growth-inhibition dose-response curve", "value": 274}
    ]},
    {"smiles": "C[CH2][Hg][S]c1ccccc1C(=O)[O-].[Na+]", "values": [
      {"measurement": "area under intracellular growth-inhibition dose-response curve", "value": 186}
    ]},
    {"smiles": "Clc1cc2cccnc2c2ncccc12", "values": [
      {"measurement": "area under intracellular growth-inhibition dose-response curve", "value": 239}
    ]},
    {"smiles": "CN(C/C=C/c1ccccc1)Cc1cccc2ccccc12.Cl", "values": [
      {"measurement": "area under intracellular growth-inhibition dose-response curve", "value": 40.6}
    ]},
    {"smiles": "CCc1cc(C(N)=S)ccn1", "values": [
      {"measurement": "area under intracellular growth-inhibition dose-response curve", "value": "257 and 153"}
    ]}
  ]
}
